These are literature values, as cited in US6291496A, “Treating cancers associated with overexpression of class I family of receptor tyrosine kinases” (priority 1999, dated 2001).

This data set deals with metastatic breast cancer. To be noted: cited from earlier work.

“HERCEPTIN: an antibody to HER-2/neu, available from Genentech”: the remission time result is “lengthen remission time in metastatic breast cancer”.
